Measurements reported in ChEMBL document CHEMBL4433202, “Design and development of multitarget-directed N-Benzylpiperidine analogs as potential candidates for the treatment of Alzheimer's disease” (Eur J Med Chem, 2019).

Amino acid sequences for entries named in this document (tags omitted).
UniProt P06276, whole entry: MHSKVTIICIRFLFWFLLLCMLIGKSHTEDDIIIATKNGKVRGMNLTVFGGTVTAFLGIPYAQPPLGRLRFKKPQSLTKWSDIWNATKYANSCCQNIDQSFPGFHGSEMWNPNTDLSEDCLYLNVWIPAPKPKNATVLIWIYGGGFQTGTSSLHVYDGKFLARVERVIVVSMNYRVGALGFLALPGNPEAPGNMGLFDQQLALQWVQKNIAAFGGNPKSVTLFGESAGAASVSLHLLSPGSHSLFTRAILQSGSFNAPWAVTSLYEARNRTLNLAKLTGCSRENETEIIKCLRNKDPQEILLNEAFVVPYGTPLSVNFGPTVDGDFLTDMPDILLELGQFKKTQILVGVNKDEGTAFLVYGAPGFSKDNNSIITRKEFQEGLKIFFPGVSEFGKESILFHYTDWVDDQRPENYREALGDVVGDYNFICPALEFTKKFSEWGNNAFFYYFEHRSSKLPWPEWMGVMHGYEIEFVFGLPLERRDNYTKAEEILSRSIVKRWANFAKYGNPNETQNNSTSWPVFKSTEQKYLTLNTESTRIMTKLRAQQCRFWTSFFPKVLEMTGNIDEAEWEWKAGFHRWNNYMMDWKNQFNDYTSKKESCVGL

Target: Cholinesterase (Homo sapiens, UniProt P06276)
Test: Inhibition of human serum butyrylcholinesterase using BTCI as substrate pre-incubated for 10 mins followed by substrate addition and measured for 6 mins by Ellman's method

**Q.** For `CCN(C)C(=O)Oc1cccc([C@H](C)N(C)C)c1` [RIVASTIGMINE], which IC50 is on record?
**A.** 1100 nM
